In article PMC6282072:

Legend:
[1] = molecular target: porcine cardiac ventricular myosin (βmys) (porcine) (UniProt P79293)
[2] = molecular target: porcine cardiac ventricular myosin (βmys) (porcine) (UniProt P79293); remark: listed apart in the source

rabbit skeletal actin (from UniProt P68135 1-377) (natural protein)
actin-activated myosin ATPase, Km (0.6 µM myosin titrated with 1–50 µM F-actin, 25 mM KCl, 21°C) [1]: 5.2 µM | actin-activated myosin ATPase, Km (value of the running text) [2]: 5.29 µM
